Reference: article PMC6344228 (2019)

Amino acid sequences for entries named in this document (tags omitted).
UniProt P06493, whole entry: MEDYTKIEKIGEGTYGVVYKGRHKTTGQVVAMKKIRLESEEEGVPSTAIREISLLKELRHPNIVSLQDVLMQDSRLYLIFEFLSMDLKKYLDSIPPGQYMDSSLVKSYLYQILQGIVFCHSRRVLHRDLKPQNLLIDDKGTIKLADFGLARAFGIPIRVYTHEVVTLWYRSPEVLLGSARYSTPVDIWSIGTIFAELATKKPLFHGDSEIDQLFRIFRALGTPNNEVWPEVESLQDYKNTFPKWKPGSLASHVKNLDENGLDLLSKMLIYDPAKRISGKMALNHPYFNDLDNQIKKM

Biological target: monomeric CDK1 (Homo sapiens, UniProt P06493)
Experiment: Differential scanning fluorimetry (DSF), CDK1
Format: binding
Conditions: read-out: ΔTm CDK1

COc1ccc2c(c1)/C(=C/c1cnc[nH]1)C(=O)N2 [SU9516]
ΔTm at 10 µM: -1.5 °C
